The subject of this data set is S. typhimurium TA98. Description: Bacterial reverse mutation assay (Ames test). As to conditions: without S9 mix, positive control. Background: The Ames test uses bacterial strains that need an amino acid and regain growth without it when mutated back.

For the substance 2,4,7-trinitrofluorenone, the Number of revertants by plate (Means ± SD), TA98 is 525 ···.

The values are drawn from patent US11220482B2, “Aminopyridinemethanol compounds and their use” (UNIVERSITE AMIENS PICARDIE JULES VERNE, priority 2017, dated 2022).
